Measurements published in ChEMBL document CHEMBL5029189, “Development of a 1,2,4-Triazole-Based Lead Tankyrase Inhibitor: Part II” (J Med Chem, 2021).

Columns and labels:
RKO = experiment: cells; details: Homo sapiens, 120 h
[1] = Stability in mouse plasma assessed as half life; type: ADME, cell-free

In the case of CCOc1ccc(-c2nnc([C@H]3C[C@H](NC(=O)c4ccccn4)C3)n2-c2ccccc2F)nc1, the GI50 (RKO) is reported as over 10 µM and the half-life [1] is reported as over 2 h.
